Earlier results in patent US20250332109A1 (Veradermics, Incorporated, priority 2024, published 2025).

Settings: within 24 h after oral administration; hypertensive patients; cited from earlier work

## Nc1cc(N2CCCCC2)nc(N)[n+]1[O-] [minoxidil]
  radiolabeled drug and metabolites recovered from urine: Over 80%
